Data published in patent publication US4048325A, “Low toxicity method of inhibiting sickling of sickle erythrocytes” (The United States of America as represented by the United …, priority 1976, dated 1977).
Read-outs that look alike come from different tables or passages of the source.

Test: in vivo
Details: ip, intraperitoneal
Excerpt: Each compound was made up in KH buffer (280 Mosm) buffered to pH 7.4 with 5N NaOH. The final volume for each injection was 1 cc in rats in 0.5 cc in mice.

## COC(=N)CCCCC(=N)OC [DMA, dimethyl adipimidate, reference compound]
mouse, mice, read-out: LD50 (Lethal dose for 50% of the animals)
  LD50: 750 mg/kg
rat, rats
  LD50: 700 mg/kg
